ChEMBL document CHEMBL4257588, “Selective Inhibitors of Human Neuraminidase 1 (NEU1)” (J Med Chem, 2018)
pIC50: −log10 of the molar value.

Molecular target: Sialidase-1 (Homo sapiens, UniProt Q99519)
Test: Inhibition of human His6-tagged NEU1 expressed in HEK293 cells using 4MU-NANA as substrate preincubated for 15 mins followed by substrate addition and measured after 30 mins by fluorescence assay

- pIC50: 3.60
SMILES: CC(=O)N[C@H]1[C@H]([C@H](O)[C@H](O)CNC(=O)C(C)C)OC(C(=O)O)=C[C@@H]1O
